# In patent publication US20060074073A1, “Therapeutic combinations comprising poly (ADP-ribose) polymerases inhibitor” (AGOURON PHARMACEUTICALS, INC., priority 2004, published 2006):
# Tested on: SW620 human colon carcinoma xenograft
# Test: In vivo antitumor efficacy with temozolomide, SW620 xenograft
# Conditions: 10 mg/kg compound + 68 mg/kg temozolomide QD×5
smiles,measurement,value
CNCc1ccc(-c2[nH]c3cc(F)cc4c3c2CCNC4=O)cc1,toxicity,toxic
